# Only a part is listed here, and it is no random draw. Some salts and complexes are drawn in separate pieces, as the source files them; their charges need not balance. Active and inactive are the calls of the source.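 How the source made its calls: active means inhibition of at least 50% at 8 µM in the primary screen; inactive means the rest.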
# Amino acid sequences for entries named in this document (tags omitted).
# UniProt O15151, whole entry, looked up: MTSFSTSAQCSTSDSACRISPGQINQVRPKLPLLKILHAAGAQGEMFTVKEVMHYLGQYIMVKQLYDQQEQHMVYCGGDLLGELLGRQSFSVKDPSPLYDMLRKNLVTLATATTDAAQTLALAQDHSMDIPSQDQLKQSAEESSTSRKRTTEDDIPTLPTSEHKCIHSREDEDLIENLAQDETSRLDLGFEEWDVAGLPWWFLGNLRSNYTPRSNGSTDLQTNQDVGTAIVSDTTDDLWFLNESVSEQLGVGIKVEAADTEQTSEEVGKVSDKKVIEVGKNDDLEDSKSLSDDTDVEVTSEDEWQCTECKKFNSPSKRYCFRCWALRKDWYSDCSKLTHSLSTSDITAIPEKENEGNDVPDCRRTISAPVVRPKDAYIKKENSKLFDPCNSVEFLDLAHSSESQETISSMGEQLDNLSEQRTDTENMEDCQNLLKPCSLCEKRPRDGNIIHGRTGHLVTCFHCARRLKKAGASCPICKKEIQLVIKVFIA
# UniProt Q00987, whole entry, looked up: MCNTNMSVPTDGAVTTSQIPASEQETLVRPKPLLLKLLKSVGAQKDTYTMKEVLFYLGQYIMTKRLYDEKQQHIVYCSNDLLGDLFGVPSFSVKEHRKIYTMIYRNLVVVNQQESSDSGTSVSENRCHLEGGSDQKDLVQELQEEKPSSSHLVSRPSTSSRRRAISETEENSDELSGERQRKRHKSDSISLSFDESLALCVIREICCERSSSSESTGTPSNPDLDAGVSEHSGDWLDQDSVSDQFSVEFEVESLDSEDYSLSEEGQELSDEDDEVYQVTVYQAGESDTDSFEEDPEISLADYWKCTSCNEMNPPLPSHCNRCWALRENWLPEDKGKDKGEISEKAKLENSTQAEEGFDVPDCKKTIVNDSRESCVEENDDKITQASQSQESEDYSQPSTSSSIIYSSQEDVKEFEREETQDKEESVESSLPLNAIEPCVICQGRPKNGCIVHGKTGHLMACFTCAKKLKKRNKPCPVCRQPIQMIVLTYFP
# Target: Protein Mdm4 (Homo sapiens) + E3 ubiquitin-protein ligase Mdm2 (Homo sapiens) (UniProt O15151+Q00987)
# Assay: inhibitors of human Mdm2-MdmX association, primary screen, cell-based, luminescence, split luciferase, SaOS-2, uHTS (AID 485346)
# Settings: SaOS-2 split-luciferase Mdm2/MdmX complementation, at 8 µM, active compounds read high
row,Structure (SMILES),inhibition
1,COc1ccccc1OP(C)(=O)Nc1ccccc1 (stereo unspecified),inactive: 3.51%
2,CP(=O)(Nc1ccccc1Br)Oc1ccccc1 (stereo unspecified),inactive: -4.9%
3,CP(=S)(Nn1cnnc1)Oc1ccccc1 (stereo unspecified),inactive: -5.12%
4,CP(=O)(Nc1ccccn1)Oc1ccc(Cl)cc1 (stereo unspecified),inactive: -29.3%
5,CCOP(C)(=S)SCC(=O)NC(C)C(=O)O (stereo unspecified),inactive: 7.58%
6,CCOC(=O)c1ccc(NP(C)(=O)Oc2ccc(OC)cc2)cc1 (stereo unspecified),inactive: 6.41%
7,O=[N+]([O-])c1cc([N+](=O)[O-])c(O)c([N+](=O)[O-])c1.c1ccc(Oc2ccncc2)cc1,inactive: -3.79%
8,CCc1ccc(OP(C)(=O)N2CCN(c3ccc([N+](=O)[O-])cc3)CC2)cc1 (stereo unspecified),inactive: -12.1%
9,CP(=O)(NC(=O)Nc1ccccc1)Oc1ccccc1 (stereo unspecified),inactive: -4.63%
10,Cc1cc(C)cc(OP(C)(=O)Nc2ccc(SC(F)(F)F)cc2)c1 (stereo unspecified),inactive: 34.7%
11,Cc1cccc(C)c1OP(C)(=O)Nc1ccc(SC(F)(F)F)cc1 (stereo unspecified),inactive: 7.67%
12,CP(=O)(Nc1ccc(SC(F)(F)F)cc1)Oc1ccc(Cl)cc1 (stereo unspecified),inactive: 13.1%
13,CP(=O)(Oc1ccccc1)OC(c1ccccc1)C(F)(F)F (stereo unspecified),inactive: 11.8%
14,CCN(CC)CCCOC(=O)C(O)(c1ccccc1)c1ccccc1,inactive: -18.9%
15,COc1ccccc1OP(C)(=O)Nc1cc(Cl)ccc1C (stereo unspecified),inactive: -4.24%
16,COc1ccc(OP(C)(=O)Nc2cccc(F)c2)cc1 (stereo unspecified),inactive: 12.3%
17,Cc1cc(C)cc(OP(C)(N)=O)c1 (stereo unspecified),inactive: 2.69%
18,CCOC(=O)c1ccc(NP(C)(=O)Oc2ccccc2)cc1 (stereo unspecified),inactive: 24%
19,COc1ccccc1OP(C)(=O)Nc1ccc(C)cc1 (stereo unspecified),inactive: -19%
20,Cc1ccc(NP(C)(=O)Oc2ccccc2)c(C)c1 (stereo unspecified),inactive: -13.8%
21,CC(C)(C)c1ccc(OP(C)(=O)Nc2ccc(SC(F)(F)F)cc2)cc1 (stereo unspecified),inactive: -6.38%
22,Cc1cccc(C)c1OP(C)(N)=O (stereo unspecified),inactive: -3.75%

row,Structure (SMILES),inhibition
1,O=[N+]([O-])c1cc([N+](=O)[O-])c(Nc2cccnc2)c([N+](=O)[O-])c1,inactive: 38.3%
2,CC1=NCCc2c1[nH]c1ccccc21.O=[N+]([O-])c1cc([N+](=O)[O-])c(O)c([N+](=O)[O-])c1,inactive: 5.96%
3,O=C(O)c1cccc(Nc2c([N+](=O)[O-])cc([N+](=O)[O-])cc2[N+](=O)[O-])c1,inactive: 1.34%
4,CP(=O)(Nc1cccc(Br)c1)Oc1ccccc1 (stereo unspecified),inactive: 3.86%
5,Cc1cc(C)cc(OP(C)(=O)Nc2ccccn2)c1 (stereo unspecified),inactive: 4.37%
6,Cc1ccc(C)c(NP(C)(=O)Oc2ccccc2)c1 (stereo unspecified),inactive: -9.47%
7,Cc1cc(C)cc(OP(C)(=O)Nc2ccc(C)cc2C)c1 (stereo unspecified),inactive: 10.5%
8,CCOC(=O)c1ccc(NP(C)(=O)Oc2cc(C)cc(C)c2)cc1 (stereo unspecified),inactive: 10.5%
9,COc1ccccc1OP(C)(=O)Nc1cccc(Br)c1 (stereo unspecified),inactive: -7.19%
10,Cc1nc2ccc3ccccc3c2s1.O=[N+]([O-])c1cc([N+](=O)[O-])c(O)c([N+](=O)[O-])c1,inactive: -6.95%
11,O=[N+]([O-])c1cc([N+](=O)[O-])c(-c2cnn(-c3ccccc3)c2)c([N+](=O)[O-])c1,inactive: 17.6%
12,O=[N+]([O-])c1cc([N+](=O)[O-])c(-n2nnc3ccccc32)c([N+](=O)[O-])c1,inactive: 0.147%
13,CP(=O)(Nc1ccc(SC(F)(F)F)cc1)Oc1ccccc1 (stereo unspecified),inactive: 17.4%
14,CCCOc1ccc(NP(C)(=O)Oc2ccc(Cl)cc2)cc1 (stereo unspecified),inactive: 10.8%
15,COc1ccccc1OP(C)(=O)Nc1c(C)cccc1C (stereo unspecified),inactive: 9.23%
16,O=[N+]([O-])c1cc([N+](=O)[O-])c(Nc2nnnn2CCO)c([N+](=O)[O-])c1,inactive: 16.3%
17,CC1=C2N=C(C=C3N=C(C(C)=C4[N-][C@@](C)([C@@H]5N=C1[C@](C)(CCC(=O)NC[C@@H](C)OP(=O)([O-])O[C@H]1[C@@H](O)[C@@H](n6cnc7cc(C)c(C)cc76)O[C@@H]1CO)[C@H]5CC(N)=O)[C@@](C)(CC(N)=O)[C@@H]4CCC(N)=O)[C@@](C)(CC(N)=O)[C@@H]3CCC(N)=O)C(C)(C)[C@@H]2CCC(N)=O.[C-]#N.[Co+3],inactive: 35.4%
18,CCOC(=O)C(CC)C1=NC(C)(C)Cc2ccccc21.O=[N+]([O-])c1cc([N+](=O)[O-])c(O)c([N+](=O)[O-])c1 (stereo unspecified),inactive: 2.68%
19,O=[N+]([O-])c1cc([N+](=O)[O-])c(NCC2CCS(=O)(=O)C2)c([N+](=O)[O-])c1 (stereo unspecified),inactive: -6.9%
20,COc1ccc(NP(C)(=O)Oc2ccccc2OC)cc1 (stereo unspecified),inactive: 15.3%
21,CN(C)CCOC(=O)C(O)(c1ccccc1)C1CCCCC1 (stereo unspecified),inactive: 8.87%
22,COc1ccc(OP(C)(=O)Nc2cccc(Br)c2)cc1 (stereo unspecified),inactive: 1.37%

row,Structure (SMILES),inhibition
1,Cc1ccccc1NP(C)(=O)Nc1ccccc1C,inactive: -10.9%
2,CP(=O)(Nc1ccc2c(c1)OCCO2)Oc1ccccc1 (stereo unspecified),inactive: 21.6%
3,CCOP(C)(=S)SCC(=O)NC(C)(CC)C(=O)O (stereo unspecified),inactive: 4.24%
4,CP(=O)(Nc1ccc(SC(F)(F)F)cc1)Oc1ccc(F)cc1 (stereo unspecified),inactive: 23.6%
5,COc1ccc2c(c1O)-c1c(O)c(OC)cc3c1[C@H](C2)[N+](C)(C)CC3.O=[N+]([O-])c1cc([N+](=O)[O-])c([O-])c([N+](=O)[O-])c1[O-],inactive: -6.26%
6,O=C(OCCN1CCN(CCOCc2ccccc2)CC1)C(O)(c1ccccc1)c1ccccc1,inactive: -25.9%
7,O=C(OC1CN2CCC1CC2)c1ccc([N+](=O)[O-])cc1 (stereo unspecified),inactive: 5.4%
8,CC(C)c1ccc(OP(C)(=O)Nc2ccc(SC(F)(F)F)cc2)cc1 (stereo unspecified),inactive: -29.8%
9,CP(=O)(Nc1ccccc1F)Oc1ccccc1 (stereo unspecified),inactive: -0.838%
10,O=[N+]([O-])c1cc([N+](=O)[O-])c(OC2CCCCC2O)c([N+](=O)[O-])c1 (stereo unspecified),inactive: -19.9%
11,CCCCCOc1ccc(NP(C)(=O)Oc2ccc(Cl)cc2Cl)cc1 (stereo unspecified),inactive: 5.45%
12,CP(=O)(Nc1ccccc1)Oc1ccc(F)cc1 (stereo unspecified),inactive: 13.6%
13,CCN(CC)CCCOC(=O)C(O)(c1ccccc1)C1CCCCC1 (stereo unspecified),inactive: 12.6%
14,COc1ccc(OP(C)(=O)Nc2ccc(SC(F)(F)F)cc2)cc1 (stereo unspecified),inactive: 1.82%
15,CCOC(=O)c1ccc(NP(C)(=O)Oc2ccc(F)cc2)cc1 (stereo unspecified),inactive: 8.7%
16,CP(=O)(OCCOc1ccccc1)OCCOc1ccccc1,inactive: 18%
17,CP(=O)(Nc1ccc(Cl)cc1Cl)Oc1ccccc1 (stereo unspecified),inactive: -2.84%
18,Cc1nc2ccc3ccccc3c2o1.O=[N+]([O-])c1cc([N+](=O)[O-])c(O)c([N+](=O)[O-])c1,inactive: 12%
19,COc1ccc(OP(C)(=O)Nc2ccccc2Br)cc1 (stereo unspecified),inactive: 20%
20,COc1ccccc1OP(C)(=O)Nc1ccc(C)c(C)c1 (stereo unspecified),inactive: 24.3%
21,Cc1cc(C)cc(OP(C)(=O)Nc2cccc(C(F)(F)F)c2)c1 (stereo unspecified),inactive: -6.13%
22,CCc1ccc(OP(C)(=O)O)cc1,inactive: 1.88%

row,Structure (SMILES),inhibition
1,CP(=O)(Nc1ccccn1)Oc1ccccc1 (stereo unspecified),inactive: 10.6%
2,COc1ccccc1OP(C)(=O)Nc1ccc(C)cc1C (stereo unspecified),inactive: 4.53%
3,O=[N+]([O-])c1cc([N+](=O)[O-])c(Nc2ccccn2)c([N+](=O)[O-])c1,inactive: 34.7%
4,Cc1c(NP(C)(=O)Oc2ccc(C(C)C)cc2)c(=O)n(-c2ccccc2)n1C (stereo unspecified),inactive: -0.131%
5,CN(C)CCOC(=O)C(O)(c1ccccc1)C1CCCC1 (stereo unspecified),inactive: 7%
6,COc1ccc(OP(C)(=O)Nc2ccccn2)cc1 (stereo unspecified),inactive: 7.97%
7,COc1ccccc1OP(C)(=O)Nc1ccc(Br)cc1 (stereo unspecified),inactive: 5.94%
8,CN(C)C(=O)c1c([N+](=O)[O-])cc([N+](=O)[O-])cc1[N+](=O)[O-],inactive: 17.5%
9,CP(=O)(Nc1ccc(Cl)cc1)Oc1ccc(F)cc1 (stereo unspecified),inactive: -0.66%
10,CC(C)(C)c1ccc(OP(C)(=O)O)cc1,inactive: -26.3%
11,COc1ccccc1OP(C)(=O)Nc1ccccc1Br (stereo unspecified),inactive: 19.5%
12,CP(=O)(Oc1ccccc1)N1CCOC1=O (stereo unspecified),inactive: 28.8%
13,CCc1ccc(OP(C)(=O)Nc2cccnc2)cc1 (stereo unspecified),inactive: -8.53%
14,COc1ccccc1OP(C)(=O)Nc1c(C)n(C)n(-c2ccccc2)c1=O (stereo unspecified),inactive: -10.4%
15,O=C(OCCCN1CCCC1)C(O)(c1ccccc1)C1CCCCC1 (stereo unspecified),inactive: -5.35%
16,CCN(CC)CC(O)COC(=O)C(O)(c1ccccc1)C1CCCCC1 (stereo unspecified),inactive: -10.6%
17,COc1ccc(OP(C)(=O)Nc2ccc(Br)cc2)cc1 (stereo unspecified),inactive: -2.9%
18,CP(=O)(OC12CC3CC(CC(C3)C1)C2)OC12CC3CC(CC(C3)C1)C2,inactive: 18.9%
19,CCOC(=O)c1ccc(NP(C)(=O)Oc2ccc(Cl)cc2)cc1 (stereo unspecified),inactive: 6.8%
20,Nc1ccc2c(ccc3cccnc32)n1.O=[N+]([O-])c1cc([N+](=O)[O-])c(O)c([N+](=O)[O-])c1,inactive: 27.9%

# — PubChem BioAssay AID485346 (Sanford-Burnham Center for Chemical Genomics, 2010)
